Tests used:
Assay type in all cases: in vivo
CB1R [1] = biological target: T1, CB1R (Mus musculus, UniProt P47746); assay: CP 55,940-induced catalepsy (bar test) in mice
T1 construct: from tissue; host or cells: living C57BL/6J mice (whole animal; brain and peripheral tissues)
Experimental: (§1) Drugs were applied in a volume of 1 μL over the course of 2 min via 33 g internal injector (P1 Technologies, Roanoke, VA, USA) connected with the 2 µL precision glass Hamilton syringe (USA) by a PE-20 tubing (Fisher Scientific, Hampton, NH, USA). The infusion rate and volume were controlled through the use of the syringe pump (model PHD 22/2000, Harvard Apparatus, Cambridge, MA, USA). Following 2 min infusion, injectors were left in place for additional 3 min to allow a passive diffusion of drugs into the tissue.
(§2) Catalepsy was assessed using the bar test described with modifications. Mice were removed from home cages and their forepaws were placed on a horizontal stainless-steel rod, 0.5 cm in diameter, positioned 3.5 cm above the bench surface. […] The arbitrary cutoff time for cataleptic mice was 60 s. Hypothermia was then evaluated by measuring core body temperature with a rectal probe (Ellab Inc., Denver, CO, USA).
(§3) To determine a working range of CP 55,940 doses that induce catalepsy and hypothermia through CB1R, a dose–response curve for CP 55,940 was constructed first. Pharmacologically naïve Cnr1^−/− and wild-type littermates were injected with increasing doses of CP 55,940 (0.1, 0.3, 1, and 3 mg/kg; i.p.) at 30 min intervals. Hypothermia and catalepsy tests were performed every 30 min before ordering the next dose of CP 55,940.

Sequences of proteins named here, by UniProt entry; tags and fusion partners are left off.
UniProt P47746, whole entry: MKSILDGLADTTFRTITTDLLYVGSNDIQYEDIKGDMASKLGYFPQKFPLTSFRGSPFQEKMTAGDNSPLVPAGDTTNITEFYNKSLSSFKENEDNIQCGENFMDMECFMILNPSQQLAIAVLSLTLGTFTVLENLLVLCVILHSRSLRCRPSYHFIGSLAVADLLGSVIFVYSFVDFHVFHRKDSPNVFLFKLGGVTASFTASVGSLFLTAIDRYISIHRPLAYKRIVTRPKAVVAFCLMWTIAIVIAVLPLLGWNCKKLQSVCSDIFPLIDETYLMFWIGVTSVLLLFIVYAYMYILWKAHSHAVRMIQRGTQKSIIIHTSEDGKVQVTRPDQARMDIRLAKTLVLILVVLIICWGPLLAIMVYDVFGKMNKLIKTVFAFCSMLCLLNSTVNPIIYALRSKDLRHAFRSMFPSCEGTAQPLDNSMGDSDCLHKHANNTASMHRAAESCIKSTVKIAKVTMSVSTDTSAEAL

CB1R [2] = biological target: T1, CB1R; assay: Drinking-in-the-dark voluntary ethanol intake (20% ethanol, 4 h)
Experimental: as §1
The procedure was performed as described, with modifications. Mice were individually housed and acclimated to the room for 5–7 days before testing and randomly assigned to treatment groups. Starting 3 h into the dark cycle, water bottles were replaced with 20% ethanol in 25 × 100 mm glass tubes fitted with metal sippers, Access to the ethanol solution was limited to 4 h every day. […] Immediately after the drinking session, mice were deeply anesthetized with isoflurane. Blood was collected by traumatic avulsion of the orbital globe and kept for 10 min at room temperature in Eppendorf tubes followed by centrifugation at 3000× g for 10 min at 4 °C. Serum was collected and kept frozen in sealed vials at −80 °C until analysis.

CB1R [3] = biological target: T1, CB1R; assay: CP 55,940-induced hypothermia in mice
Experimental: as §1, §2, §3

[4] = C57BL/6J mice, 2 µg i.c.v. 30 min before CP 55,940 0.1 or 0.3 mg/kg i.p., read 30 min later

Cc1c(C(=O)NN2CCCCC2)nn(-c2ccc(Cl)cc2Cl)c1-c1ccc(Cl)cc1 [rimonabant]
blockade of cataleptic effect of CP55,940 (CB1R [1]; [4]): effectively blocked
time mice held the bar before CP 55,940 injection (CB1R [1]; rimonabant 2 µg i.c.v.-infused group, mean ± s.e.m.): 0.1 ± 0.1 s
reduction of alcohol drinking after oral gavage in CB1R KO mice (CB1R [2]; CB1R KO (Cnr−/−) mice, rimonabant 10 mg/kg oral gavage): did not occur in CB1R KO mice
alcohol drinking after i.c.v. infusion (CB1R [2]; i.c.v. on day 4, one hour before dark period (rimonabant 2 µg; JD5037 1 µg)): did not alter alcohol drinking
alcohol drinking after oral gavage (CB1R [2]; wild-type/C57BL/6J mice, oral gavage day 4 (rimonabant 10 mg/kg; JD5037 3 mg/kg; S-MRI-1867 3, 10 mg/kg; R-MRI-1867 10 mg/kg)): markedly reduced
blockade of hypothermic effect of CP55,940 (CB1R [3]; [4]): effectively blocked
baseline body temperature before CP 55,940 injection (CB1R [3]; rimonabant 2 µg i.c.v.-infused group, n = 10, mean ± s.e.m.): 37.5 ± 0.1 °C

From PMC8399901, “Effects of a Peripherally Restricted Hybrid Inhibitor of CB1 Receptors and iNOS on Alcohol Drinking Behavior and Alcohol-Induced Endotoxemia” (Molecules, 2021)
